Bounds are passed on as bounds.

Protein sequences, listed by entry. Tags and fused reporters are not part of them. Residues count along the entry.
UniProt P05979, 25-600 limits assumed: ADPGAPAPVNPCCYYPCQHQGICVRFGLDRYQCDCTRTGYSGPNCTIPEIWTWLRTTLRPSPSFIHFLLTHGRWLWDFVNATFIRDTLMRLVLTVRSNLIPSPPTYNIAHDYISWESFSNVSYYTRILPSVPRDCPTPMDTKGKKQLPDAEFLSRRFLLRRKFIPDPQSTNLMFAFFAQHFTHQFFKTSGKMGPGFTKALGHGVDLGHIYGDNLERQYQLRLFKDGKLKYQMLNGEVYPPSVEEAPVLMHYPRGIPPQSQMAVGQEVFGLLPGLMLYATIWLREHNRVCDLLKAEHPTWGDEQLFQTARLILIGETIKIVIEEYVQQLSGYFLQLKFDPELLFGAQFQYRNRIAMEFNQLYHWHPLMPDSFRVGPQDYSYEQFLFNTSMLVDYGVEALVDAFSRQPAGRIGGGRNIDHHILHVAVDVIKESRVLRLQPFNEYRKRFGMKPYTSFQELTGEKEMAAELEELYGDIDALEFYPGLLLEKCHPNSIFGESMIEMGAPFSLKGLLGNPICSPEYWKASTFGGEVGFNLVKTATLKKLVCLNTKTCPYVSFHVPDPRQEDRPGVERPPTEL
UniProt P79208, 17-603 limits assumed: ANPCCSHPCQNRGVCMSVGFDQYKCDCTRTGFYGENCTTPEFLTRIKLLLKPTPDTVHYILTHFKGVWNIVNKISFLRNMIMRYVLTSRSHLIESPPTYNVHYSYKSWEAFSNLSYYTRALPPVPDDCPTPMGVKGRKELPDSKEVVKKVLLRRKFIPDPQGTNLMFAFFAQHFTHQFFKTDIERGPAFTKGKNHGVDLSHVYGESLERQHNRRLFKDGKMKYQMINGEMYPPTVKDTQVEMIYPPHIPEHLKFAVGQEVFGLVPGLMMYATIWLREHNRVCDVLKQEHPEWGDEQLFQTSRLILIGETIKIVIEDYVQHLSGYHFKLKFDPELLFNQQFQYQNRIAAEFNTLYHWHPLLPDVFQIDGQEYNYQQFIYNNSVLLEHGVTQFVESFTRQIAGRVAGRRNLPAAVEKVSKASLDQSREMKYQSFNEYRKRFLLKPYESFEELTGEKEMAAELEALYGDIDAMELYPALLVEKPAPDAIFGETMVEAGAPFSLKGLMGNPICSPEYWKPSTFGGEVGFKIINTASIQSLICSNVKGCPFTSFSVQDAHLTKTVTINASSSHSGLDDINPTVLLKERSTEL

Data set [1] addresses Prostaglandin G/H synthase 1 (Ovis aries, UniProt P05979).
Another data set relates to Malme-3M. The data set can be described thus: Antitumor activity against human MALME3M cells.
For the next data set, the system named is M14. The data set can be described thus: Antitumor activity against human M14 cells.
The subject of the next data set is MCF7. In words: Antitumor activity against human MCF7 cells.
Data set [2] has as its target Prostaglandin G/H synthase 2 (Ovis aries, UniProt P79208).
A further data set deals with RXF 393. The data set can be described thus: Antitumor activity against human RXF393 cells.
A short description of data set [3]: Partition coefficient, log P of the compound. The following applies: octanol/water.
The test system of the next data set is MDA-MB-435. The data set can be described thus: Antitumor activity against human MDA-MB-435 cells.
The next data set deals with PC-3. In words: Antitumor activity against human PC3 cells.

With `Cc1ccc(S(=O)(=O)n2cc([C@@]3(O)C[C@H](CC#N)OC3=O)c3ccccc32)cc1`, the IC50 in data set [1] is under 10 µM; in data set [2], under 0.001 µM. In addition, the GI50 in the data set on Malme-3M, in the data set on M14, with MCF7, in the data set on RXF 393, with MDA-MB-435 and in the data set with PC-3 was 0.1 µM in each case. The molecule also returned a LogP in data set [3] of 0.94.

For the origin of these results see ChEMBL document CHEMBL1140805, “1-Toluene-sulfonyl-3-[(3'-hydroxy-5'-substituted)-gamma-butyrolactone]-indoles: synthesis, COX-2 inhibition and anti-cancer activities” (Bioorg Med Chem Lett, 2008).
